What follows are compounds tested against rat P2X7 (Rattus norvegicus (Rat), UniProt Q64663) (assay: P2X7 antagonism in recombinant rat P2X7 cells (column headed P2X7 Rat IC50)).
Format: binding
Procedure: The in vitro affinity of the compounds of the invention for the rat and human P2X7 receptor was determined using a human peripheral blood mononuclear cells (PBMCs), a human whole blood assay, a Ca^2+ flux and radioligand binding assay in recombinant human P2X7 cells and recombinant rat P2X7 cells. In Tables 2, when the data cell has been left blank, it is intended to mean that the compound was not tested in that assay. The data represented in Tables 2 may represent a value from a single determination or when the experiment was run more than once, the data represents the average from between 2-12 runs.
human or rat P2X7-1321N1 cells were collected and frozen @ −80° C. On the day of the experiment, cell membrane preparations were made according to standard published methods. The total assay volume was 100 μl: 10 μl compound (10×)+(b) 40 μl tracer (2.5×)+50 μl membrane (2×). The tracer used for the assay was tritiated A-804598. The compound can be prepared as described in the literature. (Donnelly-Roberts, D. Neuropharmacology 2008, 56 (1), 223-229.) Compounds, tracer and membranes were incubated for 1 hour @ 4° C. The assay was terminated by filtration (GF/B filters pre-soaked with 0.3% PEI) and washed with washing buffer (Tris-HCl 50 mM). The IC50 generated in the binding assay was corrected for tracer concentration and affinity of the tracer to derive at the affinity (Ki) of the test compounds. […] Data are analyzed and graphed on Graphpad Prism 5.

Amino acid sequences for entries named in this document (tags omitted). A change or cut given only in a name is not applied to a line headed by its entry.
UniProt Q64663: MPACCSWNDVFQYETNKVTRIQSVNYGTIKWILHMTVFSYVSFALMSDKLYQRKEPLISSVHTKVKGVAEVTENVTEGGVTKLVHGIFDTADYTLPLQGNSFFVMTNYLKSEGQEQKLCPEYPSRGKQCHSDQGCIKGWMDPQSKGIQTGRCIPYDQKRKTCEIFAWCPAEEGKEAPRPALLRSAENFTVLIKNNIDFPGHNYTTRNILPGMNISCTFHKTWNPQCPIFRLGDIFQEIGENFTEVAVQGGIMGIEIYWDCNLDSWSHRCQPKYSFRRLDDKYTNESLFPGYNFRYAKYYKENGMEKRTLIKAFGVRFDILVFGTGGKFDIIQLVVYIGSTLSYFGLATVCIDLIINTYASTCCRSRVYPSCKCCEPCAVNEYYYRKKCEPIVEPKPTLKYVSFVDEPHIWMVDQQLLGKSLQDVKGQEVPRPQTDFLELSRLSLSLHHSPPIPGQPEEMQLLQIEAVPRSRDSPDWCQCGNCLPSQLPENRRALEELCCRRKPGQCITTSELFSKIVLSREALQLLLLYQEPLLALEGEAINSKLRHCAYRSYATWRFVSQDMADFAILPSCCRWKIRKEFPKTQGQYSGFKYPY

SMILES	IC50
Cc1nc(-c2ccn[nH]2)c2c(n1)[C@@H]1CCC[C@H](C2)N1C(=O)c1ccc(Cl)cc1Cl [Example 5, (2,4-dichlorophenyl)((6R,10S)-2-methyl-4-(1H-pyrazol-5-yl)-5,6,7,8,9,10-hexahydro-6,10-epiminocycloocta[d]pyrimidin-11-yl)methanone]	> 10 µM
Cc1nc(-c2ccc(F)cc2)c2c(n1)[C@@H]1CCC[C@H](C2)N1C(=O)c1ccc(F)c(Cl)c1Cl [Example 17, (2,3-dichloro-4-fluorophenyl)((6R,10S)-4-(4-fluorophenyl)-2-methyl-5,6,7,8,9,10-hexahydro-6,10-epiminocycloocta[d]pyrimidin-11-yl)methanone]	1.79 µM
Cc1nc(-c2ccn[nH]2)c2c(n1)[C@H]1CCC[C@@H](C2)N1C(=O)c1ccc(Cl)cc1Cl [Example 20, (2,4-dichlorophenyl)((6S,10R)-2-methyl-4-(1H-pyrazol-5-yl)-5,6,7,8,9,10-hexahydro-6,10-epiminocycloocta[d]pyrimidin-11-yl)methanone]	11 µM

Reference: patent US10150766B2, “P2X7 modulators” (Jansssen Pharmaceutica NV, priority 2014, dated 2018)
